US10111889B2, “Uses of ganaxolone” (priority 2014, dated 2018)

Key:
GABAA receptor [1] = test: Whole-cell patch clamp, tonic/holding current in somatosensory cortical layer II/III pyramidal cells of brain slices; assay type: cell-based, mouse; conditions: for current density / inhibitory holding current / evoked current: mean±SEM
Method: (§1) Horizontal slices (400 μm) were prepared from the brains of C57BL/6J mice RR and RQ mice of either sex (16-26 days old). All procedures were approved by the University of Wisconsin Institutional Animal Care and Use Committee. Mice were anesthetized with isoflurane, decapitated, and the brain was removed and placed in ice-cold cutting solution containing (in mM): 125 NaCl, 25 NaHCO3, 2.5 KCl, 1.25 NaH2PO4, 0.5 CaCl2, 3.35 MgCl2, 25 D-Glucose, 13.87 M sucrose, and bubbled with 95% O2 and 5% CO2. Slices were cut using a vibratome (Leica VT 1000S, Global Medical Imaging; Ramsey, Minn.) and placed in an incubation chamber containing standard 2 mM CaCl2, 1 mM MgCl2 artificial cerebrospinal fluid (ACSF) at room temperature for 1 hour before being used for recordings. Whole cell patch-clamp recordings were made from somatosensory cortical layer II/III pyramidal cells or ventrobasal thalamic relay cells, visualized using an upright differential interference contrast microscope (Axioskop FS2, Zeiss; Oberkochen, Germany). Patch pipettes were pulled from thin-walled borosilicate glass (World Precision Instruments; Sarasota, Fla.) with a resistance of 3-5 MΩ when filled with intracellular solution containing (in mM): 140 K-gluconate, 10 EGTA, 10 HEPES, 20 phosphocreatine, 2 Mg2ATP, 0.3 NaGTP (pH 7.3, 310 mOsm). Recordings were made in a submerged chamber at room temperature using a MultiClamp 700B amplifier (Axon Instruments; Foster City, Calif.), filtered at 4 kHz and digitized at 10 kHz using a Digidata 1322A analog-digital interface (Axon Instruments). Data were acquired to a Macintosh G4 (Apple Computer; Cupertino, Calif.) using Axograph X v1.1.4 (Molecular Devices; Sunnyvale, Calif.).
(§2) Additional segments (30 s) just prior to and 90 s after bicuculline administration were analyzed to quantify inhibitory tonic currents. All-point amplitude histograms were computed for each segment, and fit with a Gaussian function only to the outward current portions relative to the peak in order to omit components arising from inward phasic mIPSCs. Tonic current was calculated as the difference between the fitted Gaussian means before and after bicuculline administration. Current density (pA/pF) was calculated by dividing the current by cell capacitance. Similar fitting was used to measure the currents produced by THIP (4,5,6,7-tetrahydroisoxazolo[5,4-c]pyridin-3-ol; Gaboxadol), allopregnanolone (ALLO) and ganaxolone (GANX).

GABAA receptor [2] = test: Whole-cell patch clamp, drug-induced current in ventrobasal thalamic relay neurons of brain slices; assay type: cell-based, mouse; conditions: for current produced in thalamic neurons: mean±SEM; for reduction of induced current density in RQ compared to RR: thalamic relay neurons
Method: as §1, §2

SMILES: CC(=O)[C@H]1CC[C@H]2[C@@H]3CC[C@H]4C[C@](C)(O)CC[C@]4(C)[C@H]3CC[C@]12C [GANX, 3α-hydroxy-3β-methyl-5α-pregnan-20-one]
- current density (GABAA receptor [1]; 10 nM, RQ cortical neurons): 0.38±0.08 pA/pF
- inhibitory holding current (GABAA receptor [1]; 10 nM, RQ cortical neurons): 9.8±2.5 pA

SMILES: Oc1noc2c1CCNC2 [THIP, 4,5,6,7-tetrahydroisoxazolo[5,4-c]pyridin-3-ol]
- current density (GABAA receptor [1]; 100 nM, RQ cortical neurons): 0.36±0.16 pA/pF
- inhibitory holding current (GABAA receptor [1]; 100 nM, RQ cortical neurons): 6.5±1.7 pA
- holding current amplitude and density in RQ relative to RR untreated neurons (GABAA receptor [1]; 1 μM, RQ cortical neurons): 2-4 times
- current density (GABAA receptor [1]; 1 μM, RQ cortical neurons): 1.3±0.14 pA/pF
- evoked current (GABAA receptor [1]; 1 μM, RQ cortical neurons): 23.8±2.2 pA
- inhibitory holding current (GABAA receptor [1]; 1 μM, RQ cortical neurons): 23.88±2.2 pA
- evoked current (GABAA receptor [1]; 1 μM, RR cortical neurons): 21.4±5.7 pA
- current in RQ thalamic neurons as % of the current produced in RR (GABAA receptor [2]; THIP 1 μM): 47%
- current produced in thalamic neurons (GABAA receptor [2]; THIP 1 μM, RQ thalamic relay neurons): 69.3±22.4 pA
- current produced in thalamic neurons (GABAA receptor [2]; THIP 1 μM, RR thalamic relay neurons): 131.7±31.2 pA
- reduction of induced current density in RQ compared to RR (GABAA receptor [2]; THIP 1 μM): approximately 50%

SMILES: CC(=O)[C@H]1CC[C@H]2[C@@H]3CC[C@H]4C[C@H](O)CC[C@]4(C)[C@H]3CC[C@]12C [allopregnanolone]
- induced current amplitude and density in RQ compared to RR (GABAA receptor [1]; 30 nM, cortical layer II/III cells): indistinguishable current amplitude and density
- reduction of induced current density in RQ compared to RR (GABAA receptor [2]; ALLO 30 nM): approximately 50%
- current in RQ thalamic neurons as % of the current observed in RR (GABAA receptor [2]; allopregnanolone 30 nM): 39%
- current produced in thalamic neurons (GABAA receptor [2]; allopregnanolone 30 nM, RQ thalamic relay neurons): 13.7±3.8 pA
- current produced in thalamic neurons (GABAA receptor [2]; allopregnanolone 30 nM, RR thalamic relay neurons): 34.7±6.5 pA
